# This is a selection; strong and weak results do not stand in their true shares. Calls of active or inactive are those of the source.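 Rule for the calls: active = inhibition above a per-plate cutoff, the plate's mean sample inhibition plus 3 SD (cut at about 24% in these data); inactive = the rest.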
# Test: nonselective inhibitors of ATP calcium response in CHO-K1, primary screen, counter-screen for M1 antagonist project, cell-based, Fluo-8 calcium fluorescence, full deck, 1536-well (AID 602250);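 note: 0% = DMSO plus EC80 ATP and 100% = DMSO alone without ATP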
# Details: CHO-K1 parental, ATP-induced calcium, Fluo-8 fluorescence; at 3 µM; active compounds read high
row,Structure (SMILES),inhibition
1,CC1CCN(C(=O)Oc2c(Cl)cc(Cl)c3cccnc23)CC1,inactive: 4.58%
2,c1cc(-c2nn[nH]n2)ccc1-c1nn[nH]n1,inactive: -3.43%
3,CN(C)C(=O)OCCc1n(C)cc[n+]1C,inactive: -6.58%
4,CC(C)c1nc(Nc2ccccc2)n(P(=O)(N(C)C)N(C)C)n1,inactive: -7.2%
5,CC(C)=N/N=C(\N)N[N+](=O)[O-],inactive: -2%
6,CCN(/C(=N/P(=O)(N1CCOCC1)N1CCOCC1)N1CCOCC1)c1ccc(OC)cc1,inactive: -4.77%
7,C[N+]1=C2C=CC=CC=C2SC12C([N+](=O)[O-])=CC([N+](=O)[O-])=C[C-]2[N+](=O)[O-] (configuration not stated),active: 34.5%
8,Nc1ccc([As](=O)(O)c2ccc(N)cc2)cc1,inactive: -5.69%
9,CCc1nc2c(n1)c1c(non1O)c1c2no[n+]1[O-],inactive: -5.21%
10,O=[N+]([O-])c1cc([N+](=O)[O-])c(CCNc2ccccc2)c([N+](=O)[O-])c1,inactive: -12.4%
11,Cc1ccc(NP(=O)(Oc2ccccc2)Oc2ccccc2)nc1,inactive: -4.85%
12,O=[N+]([O-])c1cccc2n[nH]nc12,inactive: 19.1%
13,CC(=O)N1C2C3N(C(C)=O)C1C1N(C(C)=O)C(C(N1C(C)=O)N3C(C)=O)N2C(C)=O,inactive: -4.34%
14,COc1ccc(C2=NCC(CBr)S2)cc1 (configuration not stated),inactive: -13.9%
15,O=C(O)CNc1ccc([As](=O)(O)O)cc1,inactive: -6.43%
16,C/C=C1/C[C@@H](C)[C@](O)(CO)C(=O)OCC2=CCN3CC[C@@H](OC1=O)[C@@H]23,inactive: -3.34%
17,COC(=O)C1(C)COP(=O)(Nc2ccccc2)OC1 (configuration not stated),inactive: -6.54%
18,O=[N+]([O-])c1cccc(NC2=NCC(CBr)S2)c1 (configuration not stated),inactive: -2.94%
19,O=[N+]([O-])c1ncn(CCn2ncnc2[N+](=O)[O-])n1,inactive: -0.74%
20,CC(C)(C)C(=O)NC(Sc1ccncn1)C(Cl)(Cl)Cl (configuration not stated),inactive: -12.2%
21,O=C(Nc1cc([As](=O)(O)O)ccc1O)c1ccccc1,inactive: -18.3%
22,O=P1(N(CCCl)CCCl)OCCCS1 (configuration not stated),inactive: -2.29%
23,Nc1cccc2ccc([As](=O)(O)O)cc12,inactive: -3.27%
24,CCN(N=Nc1nonc1N)c1nonc1N,inactive: -13.3%
25,Cc1ccc(NP(=O)(Oc2ccccc2F)Oc2ccccc2F)nc1,inactive: -0.53%
26,CN(C(=O)Cc1ccc(Cl)c(Cl)c1)[C@H]1CCCC[C@@H]1N1CCCC1,inactive: -0.46%
27,Cc1cc(SC(NC(=O)c2ccc(F)cc2)C(Cl)(Cl)Cl)ncn1 (configuration not stated),inactive: -3.64%
